Source: patent publication US20160113921A1, “COMBINATION THERAPY COMPRISING OXAZOLIDINONE-QUINOLONES FOR USE IN TREATING BACTERIAL INFECTIONS” (MORPHOCHEM AKTIENGESELLSCHAFT FÜR KOMBINATORISCHE CHEMIE, priority 2013, published 2016)

Columns and labels:
E. cloacae ATCC 13047 = assay: Checkerboard titration of Compound 1 and colistin; conditions: listed as MCB
[1] = test system: P. aeruginosa NRZ-00425 (VIM-1); assay: MIC, broth microdilution (CLSI), CAMHB; conditions: Pseudomonas aeruginosa
P. mirabilis ATCC 9240 = assay: MIC, broth microdilution (CLSI), CAMHB; conditions: Proteus mirabilis, ATCC9240
[2] = test system: K. pneumoniae NRZ-00535 (VIM-1); assay: MIC, broth microdilution (CLSI), CAMHB; conditions: Klebsiella pneumoniae
[3] = test system: K. pneumoniae NRZ-00103 (KPC-2); assay: MIC, broth microdilution (CLSI), CAMHB; conditions: Klebsiella pneumoniae
[4] = test system: E. cloacae NRZ-00239 (VIM-1 β-lactamase); assay: Checkerboard titration of Compound 1 and colistin; conditions: Enterobacter cloacae, read-out: MIC (agent alone)
P. aeruginosa ATCC 10145 = assay: MIC, broth microdilution (CLSI), CAMHB; conditions: Pseudomonas aeruginosa, ATCC10145
[5] = test system: E. coli NRZ-00302 (metallo β-lactamase NDM-1); assay: MIC, broth microdilution (CLSI), CAMHB; conditions: Escherichia coli
[6] = test system: E. coli GNS-2601 (ESBL CTX-M-15); assay: MIC, broth microdilution (CLSI), CAMHB; conditions: Escherichia coli
[7] = test system: E. cloacae NRZ-00239 (VIM-1); assay: MIC, broth microdilution (CLSI), CAMHB; conditions: Enterobacter cloacae
[8] = test system: K. pneumoniae NRZ-00002 (OXA-48); assay: MIC, broth microdilution (CLSI), CAMHB; conditions: Klebsiella pneumoniae
[9] = test system: P. mirabilis NRZ-00185 (AmpC, type CMY-2); assay: MIC, broth microdilution (CLSI), CAMHB; conditions: Proteus mirabilis

CC(=O)NC[C@H]1CN(c2ccc(OCC3(O)CCN(c4cc5c(cc4F)c(=O)c(C(=O)O)cn5C4CC4)CC3)c(F)c2)C(=O)O1 [Compound 1, 7-(4-{4-[(5S)-5-(acetylamino-methyl)-2-oxo-oxazolidin-3-yl]-2-fluoro-phenoxymethyl}-4-hydroxy-piperidin-1-yl)-1-cyclopropyl-6-fluoro-4-oxo-1,4-dihydro-quinoline-3-carboxylic acid]
MIC (agent alone) (E. cloacae ATCC 13047): 256 µg/mL

CC(=O)NC[C@H]1CN(c2ccc(OCC3(O)CCN(c4cc5c(cc4F)c(=O)c(C(=O)O)cn5C4CC4)CC3)c(F)c2)C(=O)O1 [Compound 1, 7-(4-{4-[(5S)-5-(acetylamino-methyl)-2-oxo-oxazolidin-3-yl]-2-fluoro-phenoxymethyl}-4-hydroxy-piperidin-1-yl)-1-cyclopropyl-6-fluoro-4-oxo-1,4-dihydro-quinoline-3-carboxylic]
MIC [1]: 256 µg/mL (≈ 409 µM)
MIC (P. mirabilis ATCC 9240): 256 µg/mL (≈ 409 µM)
MIC [2]: > 256 µg/mL
MIC [3]: 256 µg/mL (≈ 409 µM)
MIC [4]: 256 µg/mL
MIC (P. aeruginosa ATCC 10145): 256 µg/mL (≈ 409 µM)
MIC [5]: 256 µg/mL (≈ 409 µM)
MIC [6]: 256 µg/mL (≈ 409 µM)
MIC [7]: 256 µg/mL (≈ 409 µM)
MIC [8]: 256 µg/mL (≈ 409 µM)
MIC [9]: 256 µg/mL (≈ 409 µM)

≈ marks a conversion by molar mass, not a printed value.
